# Results published in BindingDB's records for doi:10.1021/cb700166z (Albert Einstein College of Medicine, 2007).
# Sequences of proteins named here, by UniProt entry; tags and fusion partners are left off. A change or cut given only in a name is not applied to a line headed by its entry.
# UniProt P0AF12: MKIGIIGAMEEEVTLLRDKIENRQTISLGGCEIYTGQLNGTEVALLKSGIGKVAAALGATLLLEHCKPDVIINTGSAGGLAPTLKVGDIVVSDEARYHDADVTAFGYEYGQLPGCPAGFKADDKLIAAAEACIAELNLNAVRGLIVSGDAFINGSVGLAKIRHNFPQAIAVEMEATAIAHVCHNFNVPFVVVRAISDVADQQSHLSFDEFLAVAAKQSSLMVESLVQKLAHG
# Biological target: 5'-methylthioadenosine/S-adenosylhomocysteine nucleosidase (Escherichia coli (strain K12), UniProt P0AF12)
# Test: Enzyme Activity Assay
# Settings: pH 7.5; 25 °C
# From the text: Enzyme activity assay using various bacterial species of 5'-Methylthioadenosine nucleosidases (MTANs) excepted for MTAP, for human MTAP.
smiles,measurement,value
CSC[C@H]1CN(Cc2c[nH]c3c(N)ncnc23)C[C@@H]1O [DADMe-ImmA-Me],Kd,2 pM
